The target in one assay is hepatitis C virus RNA dependant polymerase (NS5B) (Hepatitis C virus genotype 1b, UniProt P26663). Kind of assay: biochemical. The settings on record: IC50, HCV NS5B polymerase, 10 nM enzyme, 1.5 hours at room temperature.
As to `Cn1c(-c2cccc(NC(=O)c3ccc(C(=O)c4ccccc4)cc3)c2)c(C2CCCCC2)c2ccc(C(=O)N[C@@H](Cc3c[nH]c4ccc(OCC(=O)O)cc34)C(=O)O)cc21` [Entry 1008], the half-maximal inhibitory concentration (IC50) fell in the range of 500 to 1000 nM.

For `C/C(=C\c1ccc(NC(=O)C2(NC(=O)c3ccc4c(C5CCCCC5)c(-c5ccoc5)[nH]c4c3)CCCC2)cc1)C(=O)O` [Entry 2005], the IC50 lay in the range of 500 to 1000 nM.

For `CN1CCC(NC(=O)c2ccc3c(C4CCCCC4)c(-c4ccoc4)[nH]c3c2)(C(=O)Nc2ccc3c(c2)cc(C(=O)O)n3C)CC1` [Entry 2049], the IC50 is < 500 nM.

Turning to `O=C(N[C@@H](Cc1c[nH]c2ccc(O)cc12)C(=O)O)c1ccc2c(C3CCCCC3)c(-c3ccccc3)[nH]c2c1` [Entry 1002], the half-maximal inhibitory concentration (IC50) was < 500 nM.

As for `CCN1CCC(NC(=O)c2ccc3c(C4CCCCC4)c(-c4ccccn4)n(C)c3c2)(C(=O)Nc2ccc3sc(C(=O)O)c(C)c3c2)CC1` [Entry 2099], the IC50 is < 500 nM.

`CC(C)(NC(=O)c1ccc2c(C3CCCC3)c(-c3ccccn3)oc2c1)C(=O)Nc1ccc(/C=C/C(=O)O)cc1` [Entry 8006] gave an IC50 of 1000 to 10000 nM.

Take `Cn1c(-c2ccccn2)c(C2CCCCC2)c2ccc(C(=O)NC3(C(=O)Nc4ccc5[nH]c(C(=O)O)c(I)c5c4)CCCNC3)cc21` (centres unmarked) [Entry 2110]: the IC50 was < 500 nM.

Molecule `CCn1c(-c2ccccc2)c(C2CCCCC2)c2ccc(C(=O)NC(C)(C)C(=O)Nc3ccc(/C=C/C(=O)O)cc3)cc21` [Entry 2020] showed a 50% inhibitory concentration (IC50) of 500 to 1000 nM.

On to `Cn1cc(C2CCCCC2)c2ccc(C(=O)NC(C)(C)C(=O)Nc3ccc(/C=C/C(=O)O)cc3)cc21` [Entry 2023], for which the half-inhibitory concentration (IC50) was in the range of 1000 to 10000 nM.

Take `CC(C)(NC(=O)c1ccc2c(C3CCCCC3)c(-c3ccoc3)n(Cc3ccc(C(=O)O)cc3)c2c1)C(=O)Nc1ccc(/C=C/C(=O)O)cc1` [Entry 2063]: the IC50 is < 500 nM.

As to `CCN1CCC(NC(=O)c2ccc3c(C4CCCCC4)c(-c4ccoc4)[nH]c3c2)(C(=O)Nc2ccc(CCC(N)=O)cc2)CC1` [Entry 2100], the IC50 lay in the range of 1000 to 10000 nM.

For the molecule `CN1CCC(NC(=O)c2ccc3c(C4CCCCC4)c(-c4ccoc4)[nH]c3c2)(C(=O)Nc2ccc(/C=C/C(=O)O)cc2)CC1` [Entry 2052], the IC50 is < 500 nM.

As to `CCN1CCC(NC(=O)c2ccc3c(C4CCCCC4)c(-c4ccoc4)[nH]c3c2)(C(=O)Nc2ccc(CCC(=O)O)cc2)CC1` [Entry 2079], the half-inhibitory concentration (IC50) is < 500 nM.

Molecule `O=C(O)/C=C/c1ccc(Nc2ccccc2NC(=O)c2ccc3c(C4CCCCC4)c(-c4ccoc4)[nH]c3c2)cc1` [Entry 1005] displayed a half-inhibitory concentration (IC50) of 1000 to 10000 nM.

For the molecule `O=C(O)COc1ccc2[nH]cc(C[C@H](NC(=O)c3ccc4c(C5CCCC5)c(-c5ccoc5)sc4c3)C(=O)O)c2c1` [Entry 1022], the 50% inhibitory concentration (IC50) is < 500 nM.

Regarding `CN1CCC(NC(=O)c2ccc3c(C4CCCC4)c(-c4ccccn4)n(C)c3c2)(c2nc3ccc(C=CC(=O)O)cc3[nH]2)CC1` [Entry 1020], the concentration for half-maximal inhibition (IC50) was < 500 nM.

`O=C(O)/C=C/c1ccc(NC(=O)C2(NC(=O)c3ccc4c(C5CCCC5)c(-c5ccccn5)oc4c3)CCC2)cc1` [Entry 8005] showed an IC50 of 1000 to 10000 nM.

In the case of `Cn1c(-c2ccc(C(=O)c3ccccc3)cc2)c(C2CCCCC2)c2ccc(C(=O)N[C@@H](Cc3c[nH]c4ccc(OCC(=O)O)cc34)C(=O)O)cc21` [Entry 1011], the IC50 is 500 to 1000 nM.

For `Cc1c(C(N)=O)sc2ccc(NC(=O)C3(NC(=O)c4ccc5c(C6CCCCC6)c(-c6ccccn6)n(C)c5c4)CCC3)cc12` [Entry 2112], the IC50 is < 500 nM.

On to `O=C(O)Cn1ccc2cc(NC(=O)C3(NC(=O)c4ccc5c(C6CCCCC6)c(-c6ccoc6)[nH]c5c4)CCCC3)ccc21` [Entry 2008], for which the IC50 is 500 to 1000 nM.

`CC(C)(NC(=O)c1ccc2c(C3CCCCC3)c(-c3ccsc3)[nH]c2c1)C(=O)Nc1ccc(/C=C/C(=O)O)cc1` [Entry 2059]: the IC50 is < 500 nM.

As for `Cn1c(-c2ccccn2)c(C2CCCC2)c2ccc(C(=O)NC3(c4nc5ccc(C=CC(=O)O)cc5[nH]4)CCCC3)cc21` [Entry 1014], the IC50 was < 500 nM.

Still in this assay, the particulars now being: IC50, Table 6.
Take `Cn1c(-c2csc(CS(C)(=O)=O)n2)c(C2CCCC2)c2ccc(C(=O)NC(C)(C)C(=O)Nc3ccc(/C=C/C(=O)O)cc3)cc21` [Entry 6024]: the half-maximal inhibitory concentration (IC50) was < 500 nM.

Take `Cn1c(-c2csc(N)n2)c(C2CCCC2)c2ccc(C(=O)NC3(C(=O)Nc4ccc(/C=C/C(=O)O)cc4)CCC3)cc21` [Entry 6074]: the IC50 was < 500 nM.

With `C=Cc1c(C2CCCC2)c2ccc(C(=O)NC(C)(C)C(=O)Nc3ccc(/C=C/C(=O)O)cc3)cc2n1C` [Entry 6046], the half-inhibitory concentration (IC50) is < 500 nM.

On to `Cn1c(-c2csc(-c3cccnc3)n2)c(C2CCCC2)c2ccc(C(=O)NC(C)(C)C(=O)Nc3ccc(/C=C/C(=O)O)cc3)cc21` [Entry 6003], for which the IC50 was < 500 nM.

In the case of `Cn1c(-c2ccc(Cl)cc2)c(C2CCCC2)c2ccc(C(=O)NC3(C(=O)Nc4ccc(/C=C/C(=O)O)cc4)CCC3)cc21` [Entry 6045], the IC50 lay in the range of 500 to 1000 nM.

`CC(C)N(C)c1nc(-c2c(C3CCCC3)c3ccc(C(=O)NC(C)(C)C(=O)Nc4ccc(/C=C/C(=O)O)cc4)cc3n2C)cs1` [Entry 6034]: the IC50 is < 500 nM.

Turning to `Cn1c(-c2csc(-c3cccs3)n2)c(C2CCCC2)c2ccc(C(=O)NC(C)(C)C(=O)Nc3ccc(/C=C/C(=O)O)cc3)cc21` [Entry 6019], the IC50 lay within 500 to 1000 nM.

Molecule `CNC(=O)c1c(C2CCCC2)c2ccc(C(=O)NC3(C(=O)Nc4ccc(/C=C/C(=O)O)cc4)CCCC3)cc2n1C` [Entry 6106] yielded an IC50 of 500 to 1000 nM.

In the case of `CC(=O)Nc1nc(-c2c(C3CCCC3)c3ccc(C(=O)NC(C)(C)C(=O)Nc4ccc(/C=C/C(=O)O)cc4)cc3n2C)cs1` [Entry 6008], the half-inhibitory concentration (IC50) was < 500 nM.

As to `CNc1nc(-c2c(C3CCCC3)c3ccc(C(=O)NC(C)(C)C(=O)Nc4ccc(/C=C/C(=O)O)cc4)cc3n2C)cs1` [Entry 6009], the half-maximal inhibitory concentration (IC50) is < 500 nM.

For the molecule `COc1ccc(-c2c(C3CCCC3)c3ccc(C(=O)NC4(C(=O)Nc5ccc(/C=C/C(=O)O)cc5)CCC4)cc3n2C)nc1` [Entry 6123], the concentration for half-maximal inhibition (IC50) is < 500 nM.

With `Cc1cccc(-c2c(C3CCCC3)c3ccc(C(=O)N[C@@]4(C(=O)Nc5ccc(/C=C/C(=O)O)cc5)CCN(C)C4)cc3n2C)n1` [Entry 6116], the 50% inhibitory concentration (IC50) was < 500 nM.

For the molecule `Cn1c(-c2cnccn2)c(C2CCCC2)c2ccc(C(=O)NC3(C(=O)Nc4ccc(/C=C/C(=O)O)cc4)CCCC3)cc21` [Entry 6063], the concentration for half-maximal inhibition (IC50) is < 500 nM.

As to `Cn1c(-c2cccc(N)c2)c(C2CCCC2)c2ccc(C(=O)NC3(C(=O)Nc4ccc(/C=C/C(=O)O)cc4)CCCC3)cc21` [Entry 6052], the concentration for half-maximal inhibition (IC50) is < 500 nM.

As for `Cn1c(-c2ccccn2)c(C2CCCC2)c2ccc(C(=O)NC3(C(=O)Nc4ccc(/C=C/C(=O)O)cc4)CC3)cc21` [Entry 6036], the 50% inhibitory concentration (IC50) was < 500 nM.

For the molecule `Cc1ccc(-c2c(C3CCCC3)c3ccc(C(=O)NC4(C(=O)Nc5ccc(/C=C/C(=O)O)cc5)CCCC4)cc3n2C)nc1` [Entry 6060], the IC50 is < 500 nM.

In the case of `CC(C)C(=O)Nc1nc(-c2c(C3CCCC3)c3ccc(C(=O)NC4(C(=O)Nc5ccc(/C=C/C(=O)O)cc5)CCCC4)cc3n2C)cs1` [Entry 6094], the IC50 is < 500 nM.

As for `CNc1nc(-c2c(C3CCCC3)c3ccc(C(=O)NC4(C(=O)Nc5ccc(/C=C/C(=O)O)cc5)CCCC4)cc3n2C)cs1` [Entry 6087], the IC50 is < 500 nM.

With `Cn1c(-c2csc(NC(=O)C(C)(C)C)n2)c(C2CCCC2)c2ccc(C(=O)NC3(C(=O)Nc4ccc(/C=C/C(=O)O)cc4)CCCC3)cc21` [Entry 6096], the half-maximal inhibitory concentration (IC50) is < 500 nM.

As for `Cn1c(-c2ccc(C(F)(F)F)cn2)c(C2CCCC2)c2ccc(C(=O)NC3(C(=O)Nc4ccc(/C=C/C(=O)O)cc4)CCCC3)cc21` [Entry 6042], the concentration for half-maximal inhibition (IC50) was < 500 nM.

The assay is the same for the next values; noted with them: IC50, Table 7.
Consider `Cc1cc(NC(=O)C2(NC(=O)c3ccc4c(C5CCCC5)c(-c5ccccn5)n(C)c4c3)CCC2)ccc1/C=C/C(=O)O` [Entry 7001], for which the IC50 is < 500 nM.

As to `C/C(=C\c1ccc(NC(=O)C2(NC(=O)c3ccc4c(C5CCCC5)c(-c5ccccn5)n(C)c4c3)CCC2)cc1)C(=O)O` [Entry 7011], the IC50 is < 500 nM.

In the case of `CCc1ccnc(-c2c(C3CCCC3)c3ccc(C(=O)NC4(C(=O)Nc5ccc6c(c5)cc(C(=O)O)n6C)CCC4)cc3n2C)c1` [Entry 7045], the IC50 was 1000 to 10000 nM.

As to `Cn1c(C(=O)O)cc2cc(NC(=O)C3(NC(=O)c4ccc5c(C6CCCC6)c(-c6nccs6)n(C)c5c4)CCC3)ccc21` [Entry 7008], the half-inhibitory concentration (IC50) is < 500 nM.

As for `Cc1ccc(-c2c(C3CCCC3)c3ccc(C(=O)NC4(C(=O)Nc5ccc6c(c5)cc(C(=O)O)n6C)CCC4)cc3n2C)cn1` [Entry 7035], the concentration for half-maximal inhibition (IC50) is < 500 nM.

For the molecule `Cn1c(-c2ccccn2)c(C2CCCC2)c2ccc(C(=O)NC3(C(=O)Nc4ccc5[nH]ccc5c4)CCC3)cc21` [Entry 7077], the IC50 is < 500 nM.

Consider `Cc1cccc(-c2c(C3CCCC3)c3ccc(C(=O)NC4(C(=O)Nc5ccc(-c6ccc(C(=O)O)o6)cc5)CCC4)cc3n2C)n1` [Entry 7020], for which the half-inhibitory concentration (IC50) is < 500 nM.

With `C/C(=C\c1ccc(NC(=O)C2(NC(=O)c3ccc4c(C5CCCC5)c(-c5ccc(N)cc5)n(C)c4c3)CCC2)cc1)C(=O)O` [Entry 7018], the IC50 is < 500 nM.

Regarding `Cn1c(-c2ccncc2)c(C2CCCC2)c2ccc(C(=O)NC3(C(=O)Nc4ccc(-c5ccc(C(=O)O)o5)cc4)CCC3)cc21` [Entry 7040], the 50% inhibitory concentration (IC50) was < 500 nM.

`C/C(=C\c1ccc(NC(=O)C2(NC(=O)c3ccc4c(C5CCCC5)c(-c5ccc(C)nc5)n(C)c4c3)CCC2)cc1)C(=O)O` [Entry 7034]: the concentration for half-maximal inhibition (IC50) was < 500 nM.

On to `Cn1c(-c2ccccn2)c(C2CCCC2)c2ccc(C(=O)NC3(C(=O)Nc4ccc(-c5cnc(N)nc5)cc4)CCC3)cc21` [Entry 7065], for which the IC50 is 500 to 1000 nM.

`CN1CC[C@@](NC(=O)c2ccc3c(C4CCCC4)c(-c4ccccn4)n(C)c3c2)(C(=O)Nc2ccc(-c3cncnc3)cc2)C1` [Entry 7069]: the half-maximal inhibitory concentration (IC50) was < 500 nM.

For `Cn1c(-c2cccc(N)c2)c(C2CCCC2)c2ccc(C(=O)NC3(C(=O)Nc4ccc(-c5ccc(C(=O)O)o5)cc4)CCCC3)cc21` [Entry 7013], the half-inhibitory concentration (IC50) is < 500 nM.

As to `Cn1c(-c2cccc(N)n2)c(C2CCCC2)c2ccc(C(=O)NC3(C(=O)Nc4ccc(-c5ccc(C(=O)O)o5)cc4)CCCC3)cc21` [Entry 7025], the IC50 is < 500 nM.

Values taken from patent publication US20060160798A1, “Viral polymerase inhibitors” (Boehringer Ingelheim (Canada) Ltd., priority 2001, published 2006).
